Source: ChEMBL document CHEMBL1151884, “Nuclease resistant methylphosphonate-DNA/LNA chimeric oligonucleotides” (2009)

Legend:
Nucleic Acid [1] = test: Binding affinity to RNA assessed as change in melting temperature in presence of 30 mM NaCl
Nucleic Acid [2] = test: Binding affinity to DNA assessed as change in melting temperature in presence of 120 mM NaCl
Nucleic Acid [3] = test: Binding affinity to DNA assessed as change in melting temperature in presence of 30 mM NaCl
Nucleic Acid [4] = test: Binding affinity to RNA assessed as change in melting temperature in presence of 120 mM NaCl

Structure (SMILES) | ΔTm (Nucleic Acid [1]) [°C] | ΔTm (Nucleic Acid [2]) [°C] | ΔTm (Nucleic Acid [3]) [°C] | ΔTm (Nucleic Acid [4]) [°C]
Cc1cn([C@@H]2O[C@@]3(COP(C)(=O)O[C@H]4C[C@H](n5cnc6c(N)ncnc65)O[C@@H]4COP(=O)(O)O[C@H]4[C@H]5OC[C@]4(COP(=O)(O)O[C@H]4C[C@H](n6cnc7c(N)ncnc76)O[C@@H]4COP(C)(=O)O[C@H]4C[C@H](n6cnc7c(=O)[nH]c(N)nc76)O[C@@H]4COP(=O)(O)O[C@H]4[C@H]6OC[C@]4(COP(=O)(O)O[C@H]4C[C@H](n7cnc8c(=O)[nH]c(N)nc87)O[C@@H]4CO)O[C@H]6n4cc(C)c(=O)[nH]c4=O)O[C@H]5n4cc(C)c(=O)[nH]c4=O)CO[C@@H]2[C@@H]3OP(=O)(O)OC[C@H]2O[C@@H](n3cnc4c(=O)[nH]c(N)nc43)C[C@@H]2OP(=O)(O)OC[C@H]2O[C@@H](n3ccc(N)nc3=O)C[C@@H]2O)c(=O)[nH]c1=O (stereo partly drawn) | 23 | 10 | 13 | 20
Cc1cn([C@H]2C[C@H](OP(=O)(O)OC[C@H]3O[C@@H](n4cnc5c(N)ncnc54)C[C@@H]3OP(C)(=O)OC[C@H]3O[C@@H](n4cc(C)c(=O)[nH]c4=O)C[C@@H]3OP(=O)(O)OC[C@H]3O[C@@H](n4cnc5c(=O)[nH]c(N)nc54)C[C@@H]3OP(C)(=O)OC[C@H]3O[C@@H](n4ccc(N)nc4=O)C[C@@H]3O)[C@@H](COP(C)(=O)O[C@H]3C[C@H](n4cnc5c(N)ncnc54)O[C@@H]3COP(C)(=O)O[C@H]3C[C@H](n4cnc5c(=O)[nH]c(N)nc54)O[C@@H]3COP(=O)(O)O[C@H]3C[C@H](n4cc(C)c(=O)[nH]c4=O)O[C@@H]3COP(C)(=O)O[C@H]3C[C@H](n4cnc5c(=O)[nH]c(N)nc54)O[C@@H]3CO)O2)c(=O)[nH]c1=O (stereo partly drawn) | – | -4 | 4 | –
Cc1cn([C@@H]2O[C@@]3(COP(C)(=O)O[C@H]4C[C@H](n5cnc6c(N)ncnc65)O[C@@H]4COP(C)(=O)O[C@H]4C[C@H](n5cnc6c(=O)[nH]c(N)nc65)O[C@@H]4COP(=O)(O)O[C@H]4[C@H]5OC[C@]4(COP(C)(=O)O[C@H]4C[C@H](n6cnc7c(=O)[nH]c(N)nc76)O[C@@H]4CO)O[C@H]5n4cc(C)c(=O)[nH]c4=O)CO[C@@H]2[C@@H]3OP(=O)(O)OC[C@H]2O[C@@H](n3cnc4c(N)ncnc43)C[C@@H]2OP(C)(=O)OC[C@@]23CO[C@@H]([C@H](n4cc(C)c(=O)[nH]c4=O)O2)[C@@H]3OP(=O)(O)OC[C@H]2O[C@@H](n3cnc4c(=O)[nH]c(N)nc43)C[C@@H]2OP(C)(=O)OC[C@H]2O[C@@H](n3ccc(N)nc3=O)C[C@@H]2O)c(=O)[nH]c1=O (stereo partly drawn) | 17 | 5 | 14 | 13
Cc1cn([C@H]2C[C@H](OP(=O)(O)OC[C@H]3O[C@@H](n4cnc5c(=O)[nH]c(N)nc54)C[C@@H]3OP(=O)(O)OC[C@H]3O[C@@H](n4ccc(N)nc4=O)C[C@@H]3O)[C@@H](COP(C)(=O)O[C@H]3C[C@H](n4cnc5c(N)ncnc54)O[C@@H]3COP(=O)(O)O[C@H]3C[C@H](n4cc(C)c(=O)[nH]c4=O)O[C@@H]3COP(=O)(O)O[C@H]3C[C@H](n4cnc5c(N)ncnc54)O[C@@H]3COP(C)(=O)O[C@H]3C[C@H](n4cnc5c(=O)[nH]c(N)nc54)O[C@@H]3COP(=O)(O)O[C@H]3C[C@H](n4cc(C)c(=O)[nH]c4=O)O[C@@H]3COP(=O)(O)O[C@H]3C[C@H](n4cnc5c(=O)[nH]c(N)nc54)O[C@@H]3CO)O2)c(=O)[nH]c1=O (stereo partly drawn) | – | -2 | 1 | -5
